System: iC9/CAR.19/IL15-transduced CB-NK cells
Assay: Activation of inducible caspase-9 suicide gene in vitro (annexin-V/7AAD staining)
Format: cell-based
Conditions: 10 nM dimerizer, within 4 hours
From the text: FIGS. 30A-30B: Activation of the inducible caspase-9 suicide gene eliminates iC9/CAR.19/IL15+ CB-NK cells.
iC9/CAR.19/IL15+ CB-NK cells are eliminated after activation of the suicide gene by exposure to a small-molecule dimerizer. To counteract the possibility of excessive toxicity mediated by the release of inflammatory cytokines by transduced CB-NK cells or uncontrolled NK cell growth, we incorporated a suicide gene based on the inducible caspase-9 gene in the construct (Di et al., 2011). […] The suicide gene was also effective in vivo.

## CC[C@H](C(=O)N1CCCC[C@H]1C(=O)O[C@H](CCc1ccc(OC)c(OC)c1)c1cccc(OCC(=O)NCCNC(=O)COc2cccc([C@@H](CCc3ccc(OC)c(OC)c3)OC(=O)[C@@H]3CCCCN3C(=O)[C@@H](CC)c3cc(OC)c(OC)c(OC)c3)c2)c1)c1cc(OC)c(OC)c(OC)c1 [AP1903]
  apoptosis/necrosis of transgenic cells: 60%
